Earlier results as cited in patent US9669025B2 (INFLAMMATORY RESPONSE RESEARCH, INC., priority 2013, dated 2017).
“Also recorded” adds a separate entry of the source.

Tests used:
[1] = relative to the pure isomer; cited from earlier work
[2] = levocetirizine; cited from earlier work

| Structure (SMILES) | sedation profile relative to levocetirizine [1] | time to steady state level (in words) [2] |
| --- | --- | --- |
| O=C(O)COCCN1CCN(C(c2ccccc2)c2ccc(Cl)cc2)CC1 (centres unmarked) [cetirizine] | twice | – |
| O=C(O)COCCN1CCN([C@H](c2ccccc2)c2ccc(Cl)cc2)CC1 [levocetirizine] | – | less than two days; also recorded: within two days |
